The target in the test is Programmed cell death 1 ligand 1 (Homo sapiens) (UniProt Q9NZQ7).

Amino acid sequences for entries named in this document (tags omitted).
UniProt Q9NZQ7, whole entry: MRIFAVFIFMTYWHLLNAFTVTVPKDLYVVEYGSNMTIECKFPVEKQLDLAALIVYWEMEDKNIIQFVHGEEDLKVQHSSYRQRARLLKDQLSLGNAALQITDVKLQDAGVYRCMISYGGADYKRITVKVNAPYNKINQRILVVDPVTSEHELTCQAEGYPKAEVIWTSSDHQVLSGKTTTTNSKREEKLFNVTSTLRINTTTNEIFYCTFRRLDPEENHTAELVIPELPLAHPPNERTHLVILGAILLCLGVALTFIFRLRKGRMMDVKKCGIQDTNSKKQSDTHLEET

Each structure is given as a SMILES string.

Regarding `Cc1c(COc2ccc(CN3CCCCC3C(=O)O)cc2Br)cccc1-c1ccccc1` (stereo unspecified), the Tm amounted to 44.8 °C.

The record behind these values is ChEMBL document CHEMBL4715910, “Insights into non-peptide small-molecule inhibitors of the PD-1/PD-L1 interaction: Development and perspective” (Bioorg Med Chem, 2021).
